In US20170173134A1 (priority 2011, published 2017):

Columns and labels:
[1] = tested on: MNU-induced urinary bladder carcinoma; experiment: Second experiment (Table 5): histological assessment, MNU-induced bladder cancer; assay type: in vivo, rats; conditions: Table 5 experiment, intravesical
Method: The therapeutic effect in urinary bladder cancer in animals was assessed by histological evaluation of the tissues. The criteria for assessing normality of the tissues examined for all the experiments using the same animal model, that is, the experiments reported in Table 4, Table 5, Table 6-A, Table 6-B, Table 6-C and Table 6-D are: normal tissue, flat hyperplasia, papillary hyperplasia.
Flat hyperplasia and papillary hyperplasia are reactive changes of an inflammatory nature, though benign, and their occurrence in the experiments for assessment of new drugs in animals affected with cancer, indicates a reversal of the cancer process to non-cancerous stages. […]
[…] animals (n=50) were used in the experiment. The therapeutic effect was assessed through histological assessment of tissues, and the toxicological effect of the compounds, through assessment of the presence or absence of urinary bleeding also called hematuria. […]
For the histological examinations, sections (2 μm) of the tissue of the urinary bladder were cut using microtome Zeiss, mounted on microscope slides, and stained with hematoxylin-eosin (HE), for subsequent pathology assessment, quantification of cellular changes and comparison between control and treatment groups. […]

[2] = in vivo; cited from earlier work

In the case of `CO[C@@]12[C@H](COC(N)=O)C3=C(C(=O)C(C)=C(N)C3=O)N1C[C@@H]1N[C@@H]12` [Mitomycin C], the “therapeutic effectiveness / efficacy” value [1] is listed as 40% and the “Skin rash, (%) patients affected” value [2] is listed as <10%.
